The values below come from ChEMBL document CHEMBL1938241, “Design, synthesis, and activity evaluation of broad-spectrum small-molecule inhibitors of anti-apoptotic Bcl-2 family proteins: characteristics of broad-spectrum protein binding and its effects on anti-tumor activity” (Bioorg Med Chem Lett, 2012).

Sequences of proteins named here, by UniProt entry; tags and fusion partners are left off.
UniProt Q07820, whole entry: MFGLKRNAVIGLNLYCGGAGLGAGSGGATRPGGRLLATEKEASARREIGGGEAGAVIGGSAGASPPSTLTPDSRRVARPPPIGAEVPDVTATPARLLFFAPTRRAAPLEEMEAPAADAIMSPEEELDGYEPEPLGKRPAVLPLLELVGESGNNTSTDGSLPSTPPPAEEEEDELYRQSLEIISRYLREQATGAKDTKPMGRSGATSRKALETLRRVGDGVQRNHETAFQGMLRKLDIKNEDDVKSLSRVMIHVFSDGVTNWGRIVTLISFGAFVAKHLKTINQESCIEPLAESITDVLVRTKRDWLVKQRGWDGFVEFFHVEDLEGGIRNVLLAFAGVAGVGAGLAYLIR

The term Ki denotes a measure of affinity in units of concentration, obtained from inhibition or displacement. Low readings indicate tighter binding, high ones weaker binding.

The assay has as its target Induced myeloid leukemia cell differentiation protein Mcl-1 (Homo sapiens, UniProt Q07820). Kind of assay: Binding affinity to Mcl-1 by competitive fluorescence polarization assay. On the technique in general: Fluorescence polarisation rises when a labelled molecule tumbles more slowly, as on binding a larger partner.

With `CN(C)CC[C@H](CSc1ccccc1)Nc1ccc(S(=O)(=O)NC(=O)c2ccc(N3CCN(Cc4ccccc4-c4ccc(Cl)cc4)CC3)cc2)cc1[N+](=O)[O-]` [ABT 737], the inhibition constant (Ki) was more than 100 µM.
